The assay has as its system SKOV3 ovarian cells. The assay can be described thus: Cytotoxicity of ADCs against SKOV3 cell lines (viable cells by ATP content, CellTiter-Glo). The format is cell-based. As to conditions: SKOV3 ovarian cancer cells, 3 to 5 days incubation with ADC, % survival curve fit. As to the method:
The cytotoxic activity of Trastuzumab ADCs of Formula (IV) was tested against SKOV3 ovarian cell lines
SKOV3 ovarian cells were incubated with the effectors for a period corresponding to 2 to 3 times their estimated doubling time and the amount of viable cells was determine by measuring ATP content in the wells. ATP has been widely accepted as a valid marker of viable cells. When cells lose membrane integrity, they lose the ability to synthesize ATP and endogenous ATPases rapidly deplete any remaining ATP from the cytoplasm. All ADCs were diluted in DPBS to 6× the highest concentration tested, followed by 10 3-fold serial dilutions in DPBS for a total of 11 concentration points. Each point was added to triplicate wells. DPBS was added in wells to measure the maximum growth. […] Total ATP was measured using CellTiter-Glo™ reagent from Promega as recommended by the supplier. […] Signal output was measured on a luminescence plate reader (Envision™, Perkin Elmer) set at an integration time of 0.1 sec. […]
Each concentration point (S) was normalized to the negative control wells (NC) and expressed as % survival (NC-S/NC×100). Potency (IC50) and efficacy were calculated from a non-linear curve fit of the points versus log of the concentrations without constrain on the slope. Refined data were analysed using Prism™ software. […]
Background: ATP-based viability assays read luminescence as a measure of living cells.

These results are taken from US20220267281A1, “UNSATURATED HETEROCYCLOALKYL AND HETEROAROMATIC ACYL HYDRAZONE LINKERS, METHODS AND USES THEREOF” (priority 2019, published 2022).

As a reminder, the IC50 is the concentration needed to halve the response being measured. Higher therefore signals weaker potency in that assay. On to Trastuzumab-SMCC-DM1, for which half-maximal inhibition (IC50) was put at 0.587 nM.
